Test results reported in patent US10759751B2, “Substituted spirocyclohexanes as muscarinic M1 receptor and/or M4 receptor agonists” (Heptares Therapeutics Limited, priority 2016, dated 2020).

By UniProt entry, the sequences of proteins in these tests, tags left out.
UniProt P08173, whole entry: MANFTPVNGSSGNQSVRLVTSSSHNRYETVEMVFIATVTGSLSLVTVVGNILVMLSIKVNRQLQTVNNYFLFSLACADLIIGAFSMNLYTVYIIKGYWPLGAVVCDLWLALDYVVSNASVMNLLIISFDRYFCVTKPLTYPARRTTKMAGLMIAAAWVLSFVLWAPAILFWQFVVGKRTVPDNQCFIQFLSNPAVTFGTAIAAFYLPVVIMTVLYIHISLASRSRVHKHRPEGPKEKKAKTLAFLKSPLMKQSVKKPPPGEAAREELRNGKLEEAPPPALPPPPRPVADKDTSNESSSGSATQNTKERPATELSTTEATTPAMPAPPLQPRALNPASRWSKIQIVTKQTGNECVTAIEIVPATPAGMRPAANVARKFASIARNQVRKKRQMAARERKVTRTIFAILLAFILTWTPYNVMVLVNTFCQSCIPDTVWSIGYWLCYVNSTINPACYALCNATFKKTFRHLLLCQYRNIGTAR
UniProt P11229, whole entry: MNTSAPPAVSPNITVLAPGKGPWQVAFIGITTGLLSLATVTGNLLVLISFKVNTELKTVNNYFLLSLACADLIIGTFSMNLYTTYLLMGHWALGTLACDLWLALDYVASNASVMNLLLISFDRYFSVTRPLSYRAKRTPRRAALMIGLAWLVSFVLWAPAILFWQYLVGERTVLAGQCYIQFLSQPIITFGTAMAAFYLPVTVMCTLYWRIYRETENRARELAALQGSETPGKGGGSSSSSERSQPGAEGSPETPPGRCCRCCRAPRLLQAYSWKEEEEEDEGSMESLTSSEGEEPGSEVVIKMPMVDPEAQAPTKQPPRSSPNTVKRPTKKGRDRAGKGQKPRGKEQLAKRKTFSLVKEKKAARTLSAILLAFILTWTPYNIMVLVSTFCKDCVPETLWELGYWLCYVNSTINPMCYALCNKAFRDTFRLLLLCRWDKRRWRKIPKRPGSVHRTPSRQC
UniProt P20309, whole entry: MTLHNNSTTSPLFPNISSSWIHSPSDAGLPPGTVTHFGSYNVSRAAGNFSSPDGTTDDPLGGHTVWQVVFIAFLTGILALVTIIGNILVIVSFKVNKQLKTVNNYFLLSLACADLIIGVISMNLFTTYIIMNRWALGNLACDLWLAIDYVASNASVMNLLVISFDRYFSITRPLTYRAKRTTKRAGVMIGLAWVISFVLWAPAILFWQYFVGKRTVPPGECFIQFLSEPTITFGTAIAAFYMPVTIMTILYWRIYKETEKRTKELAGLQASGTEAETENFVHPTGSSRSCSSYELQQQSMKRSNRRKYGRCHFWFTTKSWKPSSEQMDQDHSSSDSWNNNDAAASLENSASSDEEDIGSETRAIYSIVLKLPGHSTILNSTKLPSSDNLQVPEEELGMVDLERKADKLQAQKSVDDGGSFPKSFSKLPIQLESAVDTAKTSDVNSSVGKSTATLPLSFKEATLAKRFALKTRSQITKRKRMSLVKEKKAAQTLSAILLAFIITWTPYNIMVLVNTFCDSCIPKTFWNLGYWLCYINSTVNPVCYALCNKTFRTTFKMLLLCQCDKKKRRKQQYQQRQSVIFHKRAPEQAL
UniProt P08172, whole entry: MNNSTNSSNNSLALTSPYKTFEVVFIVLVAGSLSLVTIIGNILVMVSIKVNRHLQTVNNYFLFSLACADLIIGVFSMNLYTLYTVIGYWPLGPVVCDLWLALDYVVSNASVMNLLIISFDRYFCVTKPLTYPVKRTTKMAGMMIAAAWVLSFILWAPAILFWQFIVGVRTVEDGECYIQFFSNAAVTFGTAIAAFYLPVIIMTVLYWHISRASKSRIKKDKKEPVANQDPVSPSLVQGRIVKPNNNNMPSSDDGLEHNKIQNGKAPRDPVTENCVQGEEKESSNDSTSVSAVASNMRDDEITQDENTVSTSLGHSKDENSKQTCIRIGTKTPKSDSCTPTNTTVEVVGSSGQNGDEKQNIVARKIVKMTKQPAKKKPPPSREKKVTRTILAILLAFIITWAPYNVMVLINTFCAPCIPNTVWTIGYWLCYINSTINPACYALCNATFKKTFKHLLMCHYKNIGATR

What was measured:
Format in all cases: cell-based
[1] = biological target: human muscarinic M4 receptor (Homo sapiens, UniProt P08173); test: Alphascreen Surefire phospho-ERK1/2 functional assay, M4; conditions: CHO cells stably expressing human M4; for M4 % Emax cf. ACh: Emax relative to ACh; for pEC50 M4: phospho-ERK1/2
[2] = biological target: human muscarinic M1 receptor (Homo sapiens, UniProt P11229); test: Alphascreen Surefire phospho-ERK1/2 functional assay, M1; conditions: CHO cells stably expressing human M1; for M1 % Emax cf. ACh: Emax relative to ACh; for pEC50 M1: phospho-ERK1/2
[3] = biological target: human muscarinic M3 receptor (Homo sapiens, UniProt P20309); test: Alphascreen Surefire phospho-ERK1/2 functional assay, M3; conditions: CHO cells stably expressing human M3; for M3 % Emax cf. ACh: Emax relative to ACh; for pEC50 M3: phospho-ERK1/2
[4] = biological target: human muscarinic M2 receptor (Homo sapiens, UniProt P08172); test: Alphascreen Surefire phospho-ERK1/2 functional assay, M2; conditions: CHO cells stably expressing human M2; for M2 % Emax cf. ACh: Emax relative to ACh; for pEC50 M2: phospho-ERK1/2

| M4 % Emax cf. ACh [1] [%] | pEC50 M4 [1] | M1 % Emax cf. ACh [2] [%] | pEC50 M1 [2] | M3 % Emax cf. ACh [3] [%] | pEC50 M3 [3] | M2 % Emax cf. ACh [4] [%] | pEC50 M2 [4] | Structure (SMILES) |
| --- | --- | --- | --- | --- | --- | --- | --- | --- |
| 39 | 6.38 | 81 | 6.45 | – | – | – | – | Cc1ccc2c(c1)NC(=O)C21CCC(N[C@@H]2CC[C@H](c3nc(C)no3)C2)CC1 (single isomer, unassigned) |
| 63 | 6.45 | 106 | 7.05 | 1 | 4.7 | 0 | 4.7 | CCOC(=O)N1CCC2C(C1)CN2C1CCC(C#N)(c2ccccc2)CC1 (single isomer, unassigned) |
| 85 | 5.36 | 62 | 7.20 | 100 | 4.80 | 38 | 5.12 | Cc1ccc2c(c1)C1(CCC(N[C@@H]3CC[C@H](c4nc(C(F)(F)F)no4)C3)CC1)C(=O)N2 (single isomer, unassigned) |
| 84 | 6.75 | 92 | 6.27 | – | – | – | – | CCc1noc(C2CC2CNC2CCC(C#N)(c3ccccc3)CC2)n1 (single isomer, unassigned) |
